Experimental data published in ChEMBL document CHEMBL1649335 (Bioorg Med Chem, 2010).

Amino acid sequences for entries named in this document (tags omitted).
UniProt P35372, whole entry: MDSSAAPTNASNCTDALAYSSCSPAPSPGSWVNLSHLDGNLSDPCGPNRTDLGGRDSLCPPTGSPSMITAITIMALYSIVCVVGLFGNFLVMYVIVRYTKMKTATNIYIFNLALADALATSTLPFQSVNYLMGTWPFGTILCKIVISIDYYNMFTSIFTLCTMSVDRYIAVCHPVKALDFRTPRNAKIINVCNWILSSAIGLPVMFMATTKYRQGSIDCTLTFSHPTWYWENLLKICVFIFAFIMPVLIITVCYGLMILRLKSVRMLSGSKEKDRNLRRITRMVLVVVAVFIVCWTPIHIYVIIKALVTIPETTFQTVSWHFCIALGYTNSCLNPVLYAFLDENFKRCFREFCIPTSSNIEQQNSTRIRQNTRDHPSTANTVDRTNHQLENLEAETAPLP
UniProt P41145, whole entry: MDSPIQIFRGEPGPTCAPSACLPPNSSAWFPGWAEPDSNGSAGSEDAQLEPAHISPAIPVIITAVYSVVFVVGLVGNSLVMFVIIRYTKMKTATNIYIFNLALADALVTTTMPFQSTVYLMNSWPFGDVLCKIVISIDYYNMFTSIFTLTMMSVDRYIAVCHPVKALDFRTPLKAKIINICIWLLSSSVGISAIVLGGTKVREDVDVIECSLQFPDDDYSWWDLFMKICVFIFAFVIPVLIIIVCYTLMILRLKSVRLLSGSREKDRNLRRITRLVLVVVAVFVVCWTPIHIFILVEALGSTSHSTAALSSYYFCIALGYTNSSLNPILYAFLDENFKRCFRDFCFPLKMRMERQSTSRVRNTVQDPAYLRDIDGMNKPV
UniProt P41146, whole entry: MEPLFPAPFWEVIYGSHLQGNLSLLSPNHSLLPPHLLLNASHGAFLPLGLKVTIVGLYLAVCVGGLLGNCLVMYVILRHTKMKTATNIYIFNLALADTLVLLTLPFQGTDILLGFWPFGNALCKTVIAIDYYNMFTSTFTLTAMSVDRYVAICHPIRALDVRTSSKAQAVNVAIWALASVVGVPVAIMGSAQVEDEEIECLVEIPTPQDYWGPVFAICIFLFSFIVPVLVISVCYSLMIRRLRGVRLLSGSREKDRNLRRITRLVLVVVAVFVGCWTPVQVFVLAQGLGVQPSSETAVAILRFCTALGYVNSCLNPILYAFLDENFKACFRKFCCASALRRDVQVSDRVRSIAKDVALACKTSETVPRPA

Assays:
Mu-type opioid receptor = Mu-type opioid receptor (Homo sapiens, UniProt P35372); conditions: CHO-K1
[1] = target: Kappa-type opioid receptor (Homo sapiens, UniProt P41145); conditions: HEK293
Nociceptin receptor = Nociceptin receptor (Homo sapiens, UniProt P41146); conditions: HEK293

| SMILES | Emax (Mu-type opioid receptor) [%] | Emax [1] [%] | Emax (Nociceptin receptor) [%] |
| --- | --- | --- | --- |
| CN1CCN(c2nc3ccccc3n2C2CCN(C3(CO)CCCCCCC3)CC2)CC1 | 13 | 34 | 104 |
| OCC1(N2CCC(n3c(-c4ccc(F)c(Cl)c4)nc4ccccc43)CC2)CCCCCCC1 | 12 | – | 140 |
| OCC1(N2CCC(n3c(N4CC5CNCC5C4)nc4ccccc43)CC2)CCCCCCC1 (configuration not stated) | 14 | 22 | 144 |
| CC1(C)CN(c2nc3ccccc3n2C2CCN(C3(CO)CCCCCCC3)CC2)CCN1 | 2 | 14 | 132 |
| OCC1(N2CCC(n3c(-c4ccc(F)c(Cl)c4)nc4ccccc43)CC2)CCCCC1 | 6 | – | 106 |
| O=c1[nH]c2ccccc2n1C1CCN(C2(CO)CCCCCCC2)CC1 | 13 | 50 | 136 |
| CC1CN(c2nc3ccccc3n2C2CCN(C3(CO)CCCCCCC3)CC2)CCN1 (configuration not stated) | 15 | 18 | 151 |
| OCC1(N2CCC(n3c(-c4ccc(Cl)cc4)nc4ccccc43)CC2)CCCCCCC1 | 30 | 1 | 161 |
